From patent US20110223597A1 (priority 2010, published 2011)
Like-named read-outs stand apart in the source and are kept apart here.

Chains of the proteins cited; added tags and fusions are not shown. Residues count along the entry.
UniProt P22310, 29-534: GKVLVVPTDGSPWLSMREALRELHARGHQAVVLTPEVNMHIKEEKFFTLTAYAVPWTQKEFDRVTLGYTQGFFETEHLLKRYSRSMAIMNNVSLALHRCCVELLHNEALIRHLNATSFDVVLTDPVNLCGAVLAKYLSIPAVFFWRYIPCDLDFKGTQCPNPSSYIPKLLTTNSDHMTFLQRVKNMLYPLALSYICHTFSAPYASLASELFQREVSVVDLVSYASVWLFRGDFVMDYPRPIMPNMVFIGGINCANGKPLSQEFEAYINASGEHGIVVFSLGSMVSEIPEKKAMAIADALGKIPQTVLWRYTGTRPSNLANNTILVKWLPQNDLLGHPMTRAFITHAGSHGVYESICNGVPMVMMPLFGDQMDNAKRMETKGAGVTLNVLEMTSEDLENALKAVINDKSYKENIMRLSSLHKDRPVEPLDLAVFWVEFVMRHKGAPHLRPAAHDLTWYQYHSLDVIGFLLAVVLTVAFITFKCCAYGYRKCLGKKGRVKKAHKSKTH
UniProt P22310, 4-534 P24T: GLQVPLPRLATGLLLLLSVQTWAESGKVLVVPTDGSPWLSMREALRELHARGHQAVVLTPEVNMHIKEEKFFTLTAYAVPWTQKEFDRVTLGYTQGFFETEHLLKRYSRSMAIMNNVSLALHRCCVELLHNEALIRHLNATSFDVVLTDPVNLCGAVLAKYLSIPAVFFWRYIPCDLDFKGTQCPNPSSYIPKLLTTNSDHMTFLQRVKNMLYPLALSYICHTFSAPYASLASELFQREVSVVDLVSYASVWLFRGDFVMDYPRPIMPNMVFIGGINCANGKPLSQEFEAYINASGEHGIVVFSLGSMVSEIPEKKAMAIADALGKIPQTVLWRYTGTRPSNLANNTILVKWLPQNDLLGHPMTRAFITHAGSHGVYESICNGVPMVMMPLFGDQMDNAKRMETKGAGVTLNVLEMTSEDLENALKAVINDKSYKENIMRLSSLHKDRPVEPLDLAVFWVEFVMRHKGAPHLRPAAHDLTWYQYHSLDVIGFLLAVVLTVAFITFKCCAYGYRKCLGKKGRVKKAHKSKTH
UniProt P22310, 29-534 L48V: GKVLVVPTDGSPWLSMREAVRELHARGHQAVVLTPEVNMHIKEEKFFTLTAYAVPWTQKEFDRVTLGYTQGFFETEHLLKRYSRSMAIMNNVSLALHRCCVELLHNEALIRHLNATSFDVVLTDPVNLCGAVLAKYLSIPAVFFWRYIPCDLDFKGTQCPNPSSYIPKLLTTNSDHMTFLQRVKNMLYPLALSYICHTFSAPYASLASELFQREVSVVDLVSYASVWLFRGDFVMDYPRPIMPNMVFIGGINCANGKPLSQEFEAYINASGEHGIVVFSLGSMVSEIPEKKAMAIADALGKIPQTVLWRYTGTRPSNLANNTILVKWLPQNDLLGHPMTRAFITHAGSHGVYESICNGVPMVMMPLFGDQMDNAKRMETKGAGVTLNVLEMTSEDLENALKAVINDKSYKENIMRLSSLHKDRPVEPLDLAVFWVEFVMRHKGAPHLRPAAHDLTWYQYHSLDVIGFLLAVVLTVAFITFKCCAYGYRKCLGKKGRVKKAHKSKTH
UniProt P36537, 24-528: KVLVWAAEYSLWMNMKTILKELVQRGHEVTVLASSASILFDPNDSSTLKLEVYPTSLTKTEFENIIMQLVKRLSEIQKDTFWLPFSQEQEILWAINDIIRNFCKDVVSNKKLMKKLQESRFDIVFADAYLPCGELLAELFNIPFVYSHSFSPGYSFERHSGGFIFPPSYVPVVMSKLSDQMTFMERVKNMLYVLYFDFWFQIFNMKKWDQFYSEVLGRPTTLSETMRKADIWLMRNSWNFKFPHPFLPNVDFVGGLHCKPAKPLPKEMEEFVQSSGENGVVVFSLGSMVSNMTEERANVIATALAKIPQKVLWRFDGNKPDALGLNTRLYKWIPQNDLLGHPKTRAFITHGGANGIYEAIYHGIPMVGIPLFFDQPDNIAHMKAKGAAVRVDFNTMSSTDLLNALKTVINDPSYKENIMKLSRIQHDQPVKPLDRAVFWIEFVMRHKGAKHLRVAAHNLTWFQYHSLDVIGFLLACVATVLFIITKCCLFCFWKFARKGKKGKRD
UniProt P36537, 24-528 D67Y: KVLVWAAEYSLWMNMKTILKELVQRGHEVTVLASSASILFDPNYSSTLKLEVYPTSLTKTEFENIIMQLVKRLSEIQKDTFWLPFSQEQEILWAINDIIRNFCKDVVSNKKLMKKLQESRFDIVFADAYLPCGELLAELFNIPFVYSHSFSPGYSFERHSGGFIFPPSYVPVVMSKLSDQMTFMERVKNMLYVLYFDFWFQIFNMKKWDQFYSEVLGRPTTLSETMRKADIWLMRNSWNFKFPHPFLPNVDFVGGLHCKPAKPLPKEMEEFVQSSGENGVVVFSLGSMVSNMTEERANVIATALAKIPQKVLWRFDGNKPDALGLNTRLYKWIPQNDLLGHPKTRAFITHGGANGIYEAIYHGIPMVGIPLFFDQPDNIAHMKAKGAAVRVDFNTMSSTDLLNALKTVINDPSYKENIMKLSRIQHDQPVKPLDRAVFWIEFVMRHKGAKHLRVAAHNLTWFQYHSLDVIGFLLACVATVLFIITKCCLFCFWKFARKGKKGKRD

Experiments:
[1] = biological target: UGT1A4 24Pro/48Leu (wild-type) (Homo sapiens, UniProt P22310); assay: in vitro; settings: human, pH 7.5, KM, UGT1A4^24Pro/48Leu
[2] = biological target: UGT1A4^24Pro/48Leu (Homo sapiens, UniProt P22310); assay: in vitro; settings: wild-type UGT 1A4-over-expressing HEK293 cell homogenate; 50 uM OLZ
[3] = biological target: UGT1A4 24Thr/48Leu (Homo sapiens, UniProt P22310, P24T); assay: in vitro; settings: for Km at 2 h: human, pH 7.5, KM
[4] = biological target: UGT1A4 24Pro/48Val (Homo sapiens, UniProt P22310, L48V); assay: in vitro; settings: for Km at 2 h: human, pH 7.5, KM
[5] = biological target: UGT2B10 67Asp (wild-type) (Homo sapiens, UniProt P36537); assay: in vitro; settings: human, pH 7.5, KM, UGT2B10^67Asp
[6] = biological target: UGT2B10^67Asp (Homo sapiens, UniProt P36537); assay: in vitro; settings: wild-type UGT 2B10-over-expressing HEK293 cell homogenate; 50 uM OLZ
[7] = biological target: UGT2B10^67Tyr (Homo sapiens, UniProt P36537, D67Y); settings: for glucuronidation activity: UGT2B10^67Tyr
[8] = test system: UGT1A4(*1/*1)/UGT2B10(*1/*1); assay: in vitro; settings: human, pH 7.5, KM, HLM UGT1A4(*1/*1)/UGT2B10(*1/*1)
[9] = test system: UGT1A4(*1/*3)/UGT2B10(*1/*1); assay: in vitro; settings: human, pH 7.5, KM, HLM UGT1A4(*1/*3)/UGT2B10(*1/*1)
[10] = test system: UGT1A4(*3/*3)/UGT2B10(*1/*1); assay: in vitro; settings: human, pH 7.5, KM, HLM UGT1A4(*3/*3)/UGT2B10(*1/*1)
[11] = test system: UGT2B10(*1/*2)/UGT1A4(*1/*1); assay: in vitro; settings: human, pH 7.5, KM, HLM UGT2B10(*1/*2)/UGT1A4(*1/*1)
[12] = test system: UGT2B10(*2/*2)/UGT1A4(*1/*1); assay: in vitro; settings: human, pH 7.5, KM, single HLM UGT2B10(*2/*2)/UGT1A4(*1/*1)
[13] = subjects taking OLZ; urine; cited from earlier work
[14] = OLZ-10-N-glucuronide isomer 1 formation
[15] = OLZ-10-N-glucuronide isomer 2 formation

Cc1cc2c(s1)Nc1ccccc1N=C2N1CCN(C)CC1 [OLZ, Olanzapine] gave a Km at 2 h ([1]; OLZ-4′-N-glucuronide formation) of 810 ± 135 µM, a Km at 2 h [1, 14] of 156 ± 17 µM and a Km at 2 h [1, 15] of 206 ± 37 µM. For the same compound, the “glucuronidation activity against OLZ in UGT screening” value [2] was “detectable levels of activity”, the “difference in Vmax/KM versus wild-type UGT1A4^24Pro/48Leu” value ([3]; OLZ-10-N-glucuronide isomer 2 or OLZ-4′-N-glucuronide) was “no difference was observed” and the Km at 2 h ([3]; OLZ-4′-N-glucuronide formation) was 358 ± 54 µM. The Km at 2 h [3, 14] was 584 ± 67 µM, the Km at 2 h [3, 15] was 152 ± 23 µM and the “difference in Vmax/KM versus either of the other two UGT1A4 isoforms” value ([4]; OLZ-4′-N-glucuronide formation) was “no significant difference”. The Km at 2 h ([4]; OLZ-4′-N-glucuronide formation) was 326 ± 33 µM, the Km at 2 h [4, 14] was 69 µM and the Km at 2 h [4, 15] was 110 ± 14 µM. It also gave a Km at 2 h ([5]; OLZ-4′-N-glucuronide formation) of 457 ± 11 µM, a Km at 2 h [5, 14] of 564 ± 15 µM and a Km at 2 h [5, 15] of 818 ± 23 µM. For the same compound, the “glucuronidation activity against OLZ in UGT screening” value [6] was “detectable levels of activity”, the glucuronidation activity ([7]; OLZ-4′-N-glucuronide formation) was “no activity detected” and the glucuronidation activity [7, 14] was “no activity detected”. The glucuronidation activity [7, 15] was “no activity detected”, the “glucuronidation activity against OLZ” value ([7]; UGT2B10^67Tyr variant) was “no glucuronidation activity was observed” and the Km at 2 h ([8]; OLZ-4′-N-glucuronide formation) was 317 ± 39 µM. For the same compound, the Km at 2 h [8, 14] was 352 ± 59 µM, the Km at 2 h [8, 15] was 311 ± 27 µM and the Km at 2 h ([9]; OLZ-4′-N-glucuronide formation) was 263 ± 59 µM. It also gave a Km at 2 h [9, 14] of 328 ± 33 µM, a Km at 2 h [9, 15] of 239 ± 22 µM and a Km at 2 h ([10]; OLZ-4′-N-glucuronide formation) of 337 ± 37 µM. It also gave a Km at 2 h [10, 14] of 268 ± 41 µM, a Km at 2 h [10, 15] of 263 ± 86 µM and a Km at 2 h ([11]; OLZ-4′-N-glucuronide formation) of 602 µM. It also gave a Km at 2 h [11, 14] of 302 ± 50 µM, a Km at 2 h [11, 15] of 196 ± 54 µM and a Km at 2 h ([12]; OLZ-4′-N-glucuronide formation) of 796 µM. For the same compound, the Km at 2 h [12, 14] was 273 µM, the Km at 2 h [12, 15] was 271 µM and the “10-N-glucuronide as share of urinary OLZ glucuronides” value [13] was about 67%. For the same compound, the “OLZ glucuronides as share of all urinary OLZ metabolites” value [13] was about 61% and the “unchanged OLZ as share of total urinary OLZ” value [13] was about 18%.
